Columns and labels:
[1] = target: T1, protein kinase B (PKB), fusion protein PKB-PIF (Homo sapiens, UniProt P31751); test: Measurement of PKB kinase inhibitory activity (IC50); assay type: biochemical
T1 construct: made in house
Procedure: The inhibition of protein kinase B (PKB) activity by compounds can be determined essentially as described by Andjelkovic et al. (Mol. Cell. Biol. 19, 5061-5072 (1999)) but using a fusion protein described as PKB-PIF and described in full by Yang et al (Nature Structural Biology 9, 940-944 (2002)). […] A final concentration of 0.6 nM enzyme is used in a buffer that includes 20 mM MOPS pH 7.2, 30 μM ATP/γ^33P-ATP and 25 μM substrate. Compounds are added in DMSO solution to a final DMSO concentration of 2.5%. The reaction is allowed to proceed for 20 minutes before addition of excess orthophosphoric acid to quench activity. The reaction mixture is transferred to a phosphocellulose filter plate where the peptide binds and the unused ATP is washed away. After washing, scintillant is added and the incorporated activity measured by scintillation counting.
The % inhibition of the PKB activity is calculated and plotted in order to determine the concentration of test compound required to inhibit 50% of the PKB activity (IC50).

PKA catalytic domain = target: T2, PKA catalytic domain (Homo sapiens, UniProt P17612); test: Measurement of PKA kinase inhibitory activity (IC50); assay type: biochemical; settings: 1 nM enzyme, 40 μM ATP/γ33P-ATP, 5 μM peptide substrate GRTGRRNSI, 20 minutes; read-out: IC50, concentration required to inhibit 50% of the PKA activity
T2 construct: using the PKA catalytic domain from Upstate Biotechnology (#14-440); purchased Upstate Biotechnology 14-440
Procedure: A final concentration of 1 nM enzyme is used in a buffer that includes 20 mM MOPS pH 7.2, 40 μM ATP/γ^33P-ATP and 5 μM substrate. Compounds are added in dimethylsulphoxide (DMSO) solution to a final DMSO concentration of 2.5%. The reaction is allowed to proceed for 20 minutes before addition of excess orthophosphoric acid to quench activity. Unincorporated γ^33P-ATP is then separated from phosphorylated proteins on a Millipore MAPH filter plate. The plates are washed, scintillant is added and the plates are then subjected to counting on a Packard Topcount.

Structure (SMILES): Cc1n[nH]cc1-c1ccc(C(O)(CN)c2ccccc2)cc1 (centres unmarked) [Example 78, 2-Amino-1-[4-(3-methyl-1H-pyrazol-4-yl)-phenyl]-1-phenyl-ethanol]
- IC50 [1]: < 1000 nM
- IC50 (PKA catalytic domain): < 1000 nM
